Antibody variant affinities, Ab-14 heavy chain, assay 1

All variants were tested on one target, the spike HR2 peptide PDVDLGDISGINAS (SARS-CoV-2).

Ab-14 is the parent antibody, in scFv form: VH, then three GGGGS repeats, then VL. The light chain is unchanged in all variants.
VH: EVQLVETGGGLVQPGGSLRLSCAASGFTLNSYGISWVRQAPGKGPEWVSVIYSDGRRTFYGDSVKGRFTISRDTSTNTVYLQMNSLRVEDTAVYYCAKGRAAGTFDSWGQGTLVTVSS
VL: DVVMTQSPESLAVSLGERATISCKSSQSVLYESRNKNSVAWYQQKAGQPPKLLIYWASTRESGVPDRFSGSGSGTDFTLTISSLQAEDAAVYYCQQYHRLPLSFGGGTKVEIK

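The parent was found by panning a naive human phage display library on the peptide. Library AAYL49 holds single substitutions and randomly drawn double and triple substitutions in the CDRs. The assay is AlphaSeq: two haploid yeast populations carry antibody and antigen on their surface. Binding brings cells together so that they mate, and sequencing counts the barcode pairs among the diploids. Read counts were normalised to the haploid input and turned into Kd by a linear fit to BCL2-family pairs of known affinity, for each replicate. There are three technical replicates.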

Positions count from residue 1 of the parent VH; I34R puts R in place of I. Every variant below is changed at A101 of the VH (sequential numbering). Each Kd is an estimate from the mating assay, the geometric mean of the replicates in which the pair was seen; lower is stronger. An entry "nd" has no value in the source: the pair was not observed among the diploids in any replicate. This suggests poor binding but is not conclusive. Background: pairings of library AAYL49 with three empty control strains gave a value in 15% of cases (median 11 µM, 5th percentile 680 nM). Values in that range, when seen in few replicates, are hard to tell from nonspecific mating. Also given: how often the same scFv was detected with the empty control strains. For reference, the parent read 4.4 nM as the reference entry and 13 µM (one replicate of three) as a member of this library.

* I34R/F59T/A101K = 720 µM (1 of 3 replicates; controls 2 of 9)
* A101S/T104V = 6.2 µM (1 of 3 replicates; controls 2 of 9)
* Y32L/S53L/A101V = 5.9 µM (2 of 3 replicates; controls 1 of 9)
* R56F/R57Y/A101G = nd (0 of 3 replicates; controls 0 of 9)
* T28M/Y32H/A101F = 1.2 µM (3 of 3 replicates; controls 0 of 9)
* V50N/A101G/T104M = 720 nM (1 of 3 replicates; controls 0 of 9)
* D62I/A101E/F105W = nd (0 of 3 replicates; controls 0 of 9)
* K65M/A101M/S107H = 99 nM (3 of 3 replicates; controls 4 of 9)
* I34N/Y52A/A101Q = 2.3 µM (2 of 3 replicates; controls 1 of 9)
* F27Y/A101T/F105Y = 220 nM (3 of 3 replicates; controls 3 of 9)
* N30R/S35A/A101F = 12 µM (1 of 3 replicates; controls 3 of 9)
* T58L/A101Q/T104Y = nd (0 of 3 replicates; controls 1 of 9)
* Y60S/A101P = 38 µM (2 of 3 replicates; controls 6 of 9)
* I51F/A101M/F105I = nd (0 of 3 replicates; controls 0 of 9)
* A101M = 2.7 nM (3 of 3 replicates; controls 3 of 9)
* K65M/A101H = 140 nM (3 of 3 replicates; controls 0 of 9)
* K65I/A101P/A102C = nd (0 of 3 replicates; controls 0 of 9)
* V50C/A101C = 12 µM (1 of 3 replicates; controls 0 of 9)
* T28R/R100Q/A101I = 2.8 nM (3 of 3 replicates; controls 0 of 9)
* N30T/S53V/A101V = 13 nM (3 of 3 replicates; controls 1 of 9)
* T28P/S35I/A101S = nd (0 of 3 replicates; controls 0 of 9)
* Y32M/G55S/A101C = 5.7 µM (1 of 3 replicates; controls 1 of 9)
* G26E/G99I/A101K = 200 nM (3 of 3 replicates; controls 0 of 9)
* G99N/R100H/A101W = 10 nM (3 of 3 replicates; controls 2 of 9)
* F59L/A101W/A102Y = nd (0 of 3 replicates; controls 0 of 9)
* S53G/A101L/G103I = 200 nM (3 of 3 replicates; controls 0 of 9)
* V50F/G99T/A101G = nd (0 of 3 replicates; controls 1 of 9)
* I34A/R57A/A101H = nd (0 of 3 replicates; controls 0 of 9)
* G33C/I51T/A101I = 19 µM (1 of 3 replicates; controls 2 of 9)
* Y60L/G99N/A101P = nd (0 of 3 replicates; controls 0 of 9)
* L29T/R100N/A101H = 23 nM (3 of 3 replicates; controls 0 of 9)
* G26K/A101H/S107C = 15 µM (3 of 3 replicates; controls 1 of 9)
* Y52M/A101Y/F105I = 110 µM (2 of 3 replicates; controls 2 of 9)
* L29E/I34P/A101I = nd (0 of 3 replicates; controls 0 of 9)
* Y32W/A101G = 31 µM (2 of 3 replicates; controls 0 of 9)
* G33V/V64T/A101M = 89 µM (1 of 3 replicates; controls 2 of 9)
* I51G/G61L/A101L = 6.0 nM (3 of 3 replicates; controls 1 of 9)
* Y52V/G99V/A101T = nd (0 of 3 replicates; controls 0 of 9)

Extract of 5 entries:

changes,apparent Kd,detected,signal with controls
I51G/G61L/A101L,6.0 nM,3 of 3,1 of 9
I34N/Y52A/A101Q,2.3 µM,2 of 3,1 of 9
I51F/A101M/F105I,nd,0 of 3,0 of 9
K65I/A101P/A102C,nd,0 of 3,0 of 9
Y32L/S53L/A101V,5.9 µM,2 of 3,1 of 9

From the AlphaSeq antibody data of Engelhart et al. 2022 (doi:10.1038/s41597-022-01779-4), copy in the FLAb collection.